This test addresses CREB-binding protein/Histone acetyltransferase p300 (Homo sapiens, UniProt Q09472+Q92793). Briefly: Inhibition of p300/CBP (unknown origin) using histone H3 (1 to 21 residues) as substrate incubated for 90 mins by AlphaLISA assay. Format: protein assay.

Amino acid sequences for entries named in this document (tags omitted). A change or cut given only in a name is not applied to a line headed by its entry.
UniProt Q09472: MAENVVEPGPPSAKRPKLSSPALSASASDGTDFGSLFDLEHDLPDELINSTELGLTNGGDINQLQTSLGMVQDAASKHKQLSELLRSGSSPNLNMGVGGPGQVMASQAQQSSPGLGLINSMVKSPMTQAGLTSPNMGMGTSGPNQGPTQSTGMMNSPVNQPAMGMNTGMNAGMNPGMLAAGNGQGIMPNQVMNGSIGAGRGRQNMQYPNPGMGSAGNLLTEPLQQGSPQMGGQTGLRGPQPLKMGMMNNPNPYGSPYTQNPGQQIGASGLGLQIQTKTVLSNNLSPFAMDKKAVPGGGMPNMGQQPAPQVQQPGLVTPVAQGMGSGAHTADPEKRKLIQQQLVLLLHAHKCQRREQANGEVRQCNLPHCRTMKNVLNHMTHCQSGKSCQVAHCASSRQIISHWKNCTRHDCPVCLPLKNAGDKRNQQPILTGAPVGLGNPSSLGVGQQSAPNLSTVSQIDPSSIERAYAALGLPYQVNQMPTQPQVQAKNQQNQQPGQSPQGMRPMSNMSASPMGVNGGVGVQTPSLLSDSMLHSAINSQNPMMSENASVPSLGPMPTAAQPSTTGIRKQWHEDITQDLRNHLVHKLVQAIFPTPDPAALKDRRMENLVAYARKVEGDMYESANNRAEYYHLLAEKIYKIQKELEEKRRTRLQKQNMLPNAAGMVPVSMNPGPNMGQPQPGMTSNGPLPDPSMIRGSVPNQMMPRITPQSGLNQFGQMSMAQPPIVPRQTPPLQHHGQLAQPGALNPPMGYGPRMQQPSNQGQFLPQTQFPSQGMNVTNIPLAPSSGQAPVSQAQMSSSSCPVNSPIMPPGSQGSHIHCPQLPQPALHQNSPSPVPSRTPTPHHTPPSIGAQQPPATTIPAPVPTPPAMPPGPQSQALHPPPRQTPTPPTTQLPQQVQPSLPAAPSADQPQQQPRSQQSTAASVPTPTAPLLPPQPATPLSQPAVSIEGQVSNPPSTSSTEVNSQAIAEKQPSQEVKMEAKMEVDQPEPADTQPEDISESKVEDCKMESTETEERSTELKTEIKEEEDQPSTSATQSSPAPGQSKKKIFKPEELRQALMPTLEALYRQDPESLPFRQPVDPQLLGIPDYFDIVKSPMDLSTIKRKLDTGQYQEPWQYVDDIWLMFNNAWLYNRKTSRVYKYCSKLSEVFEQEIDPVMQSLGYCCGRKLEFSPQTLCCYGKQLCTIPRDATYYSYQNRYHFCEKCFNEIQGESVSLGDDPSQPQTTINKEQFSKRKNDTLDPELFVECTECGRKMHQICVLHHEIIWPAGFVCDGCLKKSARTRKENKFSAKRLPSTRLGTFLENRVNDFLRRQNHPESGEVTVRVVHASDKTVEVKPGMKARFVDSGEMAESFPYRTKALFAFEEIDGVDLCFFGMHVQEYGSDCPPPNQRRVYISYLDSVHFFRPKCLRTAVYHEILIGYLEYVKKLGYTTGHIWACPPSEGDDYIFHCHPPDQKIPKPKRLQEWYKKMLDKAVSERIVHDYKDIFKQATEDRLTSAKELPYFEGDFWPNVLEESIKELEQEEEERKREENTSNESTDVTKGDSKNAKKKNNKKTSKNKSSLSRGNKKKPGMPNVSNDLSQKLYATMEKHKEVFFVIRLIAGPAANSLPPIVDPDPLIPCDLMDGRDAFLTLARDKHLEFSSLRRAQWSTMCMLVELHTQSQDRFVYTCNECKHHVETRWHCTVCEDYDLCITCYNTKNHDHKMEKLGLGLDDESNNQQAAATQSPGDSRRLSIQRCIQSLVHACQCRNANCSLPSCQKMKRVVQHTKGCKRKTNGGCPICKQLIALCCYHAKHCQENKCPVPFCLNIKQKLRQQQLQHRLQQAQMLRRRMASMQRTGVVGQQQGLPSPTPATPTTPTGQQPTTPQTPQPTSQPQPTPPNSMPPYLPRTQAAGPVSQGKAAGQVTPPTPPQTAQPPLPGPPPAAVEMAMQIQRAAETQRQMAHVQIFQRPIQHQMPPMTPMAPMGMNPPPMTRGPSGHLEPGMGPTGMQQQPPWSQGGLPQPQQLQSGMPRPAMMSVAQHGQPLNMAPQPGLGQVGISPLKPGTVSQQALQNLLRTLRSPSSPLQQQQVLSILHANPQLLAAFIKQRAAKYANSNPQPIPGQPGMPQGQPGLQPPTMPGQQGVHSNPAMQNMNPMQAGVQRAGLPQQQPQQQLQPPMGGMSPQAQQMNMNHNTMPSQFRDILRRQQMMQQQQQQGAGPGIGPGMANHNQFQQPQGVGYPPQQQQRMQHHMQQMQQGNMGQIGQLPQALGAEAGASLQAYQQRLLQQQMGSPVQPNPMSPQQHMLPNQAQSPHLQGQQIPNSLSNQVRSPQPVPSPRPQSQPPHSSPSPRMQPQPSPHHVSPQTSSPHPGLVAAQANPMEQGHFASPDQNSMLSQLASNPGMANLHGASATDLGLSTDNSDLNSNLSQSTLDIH
UniProt Q92793: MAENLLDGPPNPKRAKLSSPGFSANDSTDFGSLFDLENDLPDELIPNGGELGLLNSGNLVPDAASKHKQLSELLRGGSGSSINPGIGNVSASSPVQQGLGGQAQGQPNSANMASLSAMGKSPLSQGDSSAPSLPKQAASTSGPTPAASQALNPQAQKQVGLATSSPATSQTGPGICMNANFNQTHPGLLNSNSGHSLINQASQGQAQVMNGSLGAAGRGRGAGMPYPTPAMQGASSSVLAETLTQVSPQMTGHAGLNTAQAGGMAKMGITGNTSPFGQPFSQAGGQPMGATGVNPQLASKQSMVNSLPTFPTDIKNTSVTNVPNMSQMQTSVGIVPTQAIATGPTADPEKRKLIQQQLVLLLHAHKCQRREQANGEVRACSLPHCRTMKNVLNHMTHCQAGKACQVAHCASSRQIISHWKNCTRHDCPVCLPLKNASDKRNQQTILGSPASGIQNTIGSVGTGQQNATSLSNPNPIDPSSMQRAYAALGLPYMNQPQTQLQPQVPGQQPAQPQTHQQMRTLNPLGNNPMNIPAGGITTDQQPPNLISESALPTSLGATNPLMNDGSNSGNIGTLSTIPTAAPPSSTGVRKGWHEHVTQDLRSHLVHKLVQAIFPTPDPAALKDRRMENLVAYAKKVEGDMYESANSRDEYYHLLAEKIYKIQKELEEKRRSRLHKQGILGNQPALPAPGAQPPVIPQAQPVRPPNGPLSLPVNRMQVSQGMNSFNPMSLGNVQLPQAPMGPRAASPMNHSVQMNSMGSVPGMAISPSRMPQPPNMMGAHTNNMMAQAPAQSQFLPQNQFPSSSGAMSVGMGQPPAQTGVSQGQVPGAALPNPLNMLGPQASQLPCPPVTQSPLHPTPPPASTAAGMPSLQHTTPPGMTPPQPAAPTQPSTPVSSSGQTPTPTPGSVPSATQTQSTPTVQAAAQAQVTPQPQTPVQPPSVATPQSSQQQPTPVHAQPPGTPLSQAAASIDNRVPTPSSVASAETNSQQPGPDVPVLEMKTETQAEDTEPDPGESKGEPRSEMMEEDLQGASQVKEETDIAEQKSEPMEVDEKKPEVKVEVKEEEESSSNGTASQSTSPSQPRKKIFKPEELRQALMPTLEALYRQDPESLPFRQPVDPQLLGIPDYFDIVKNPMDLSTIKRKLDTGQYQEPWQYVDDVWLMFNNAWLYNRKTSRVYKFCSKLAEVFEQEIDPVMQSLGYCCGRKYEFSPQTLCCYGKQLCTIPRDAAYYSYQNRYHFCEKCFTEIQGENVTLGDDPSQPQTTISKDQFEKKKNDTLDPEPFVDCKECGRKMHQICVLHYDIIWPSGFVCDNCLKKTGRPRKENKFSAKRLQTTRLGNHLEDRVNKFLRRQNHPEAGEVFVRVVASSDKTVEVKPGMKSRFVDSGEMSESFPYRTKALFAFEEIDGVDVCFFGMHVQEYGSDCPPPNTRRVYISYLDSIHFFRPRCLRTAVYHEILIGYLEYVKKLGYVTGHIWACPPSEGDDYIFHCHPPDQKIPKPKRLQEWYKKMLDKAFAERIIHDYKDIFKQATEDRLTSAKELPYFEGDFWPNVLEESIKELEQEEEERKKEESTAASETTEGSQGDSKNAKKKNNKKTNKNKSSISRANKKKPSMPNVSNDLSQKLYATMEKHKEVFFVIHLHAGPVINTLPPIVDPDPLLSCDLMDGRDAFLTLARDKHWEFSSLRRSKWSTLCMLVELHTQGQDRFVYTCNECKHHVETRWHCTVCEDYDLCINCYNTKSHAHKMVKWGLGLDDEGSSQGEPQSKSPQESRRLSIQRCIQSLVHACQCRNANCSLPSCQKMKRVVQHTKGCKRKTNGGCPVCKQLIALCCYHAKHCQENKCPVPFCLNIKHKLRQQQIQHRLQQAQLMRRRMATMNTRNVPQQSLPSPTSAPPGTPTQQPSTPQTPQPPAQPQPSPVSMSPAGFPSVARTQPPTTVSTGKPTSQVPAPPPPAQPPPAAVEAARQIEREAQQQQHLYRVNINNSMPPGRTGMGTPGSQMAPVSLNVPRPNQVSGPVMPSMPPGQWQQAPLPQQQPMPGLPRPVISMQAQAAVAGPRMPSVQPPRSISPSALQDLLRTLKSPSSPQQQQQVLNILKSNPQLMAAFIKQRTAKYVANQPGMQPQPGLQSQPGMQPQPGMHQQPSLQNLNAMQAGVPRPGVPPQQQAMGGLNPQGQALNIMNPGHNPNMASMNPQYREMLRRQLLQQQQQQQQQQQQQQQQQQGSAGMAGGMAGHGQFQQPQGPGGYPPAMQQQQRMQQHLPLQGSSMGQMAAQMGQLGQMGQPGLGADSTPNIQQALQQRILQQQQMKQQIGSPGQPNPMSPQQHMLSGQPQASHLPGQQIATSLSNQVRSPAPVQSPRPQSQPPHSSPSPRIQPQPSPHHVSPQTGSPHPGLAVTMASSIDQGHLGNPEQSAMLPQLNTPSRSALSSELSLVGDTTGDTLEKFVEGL

SMILES strings stand for the structures.

For `CO[C@H]1CC[C@H](n2c([C@@H]3CCCC(=O)N3c3ccc(F)c(F)c3)nc3cc(-c4c(C)noc4C)ccc32)CC1` [INOBRODIB], the IC50 (in general, the point on the concentration scale where inhibition reaches its midpoint) came to 0.032 µM.

The record behind these values is ChEMBL document CHEMBL5528046, “Discovery of Novel PROTAC Degraders of p300/CBP as Potential Therapeutics for Hepatocellular Carcinoma” (J Med Chem, 2024).
